Test results as given in patent US5236931A, “2-substituted benzamide and benzoate derivatives of 3-aminoquinuclidine and 3-quinuclidinol” (priority 1992, dated 1993).

How the values were obtained:
[1] = test system: cisplatin-induced emesis; assay: Effect on Cisplatin-induced Emesis in Dogs; conditions: dog, 1.0 mg/kg IV; cisplatin 3.0 mg/kg IV
[2] = test system: gastric emptying of a test meal; assay: Effect on Gastric Emptying of a Test Meal in Rats; type: in vivo; conditions: rat
[3] = test system: serotonin induced bradycardia (von Bezold-Jarisch reflex); assay: Antagonism of the von Bezold-Jarisch Reflex (serotonin induced bradycardia in rats); conditions: rat, 0.0316 mg/kg IV

SMILES | % inhibition of cisplatin-induced emesis [1] [%] | Gastric emptying: % change in meal emptied ([2]; 9.0 mg/kg IP) [%] | Gastric emptying: % change in meal emptied ([2]; 10 mg/kg IP) [%] | reduction of 5-HT induced bradycardia [3] [%]
C=CCNc1cc(OCC=C)c(C(=O)OC2CN3CCC2CC3)cc1Cl (centres unmarked) | 94 | 24 | – | –
C=CCOc1cc(N)c(Cl)cc1C(=O)OC1CN2CCC1CC2 (centres unmarked) | – | – | 63 | –
CSCCOc1cc(N)c(Cl)cc1C(=O)OC1CN2CCC1CC2 (centres unmarked) | 75 | 40 | – | –
COCCOc1cc(N)c(Cl)cc1C(=O)OC1CN2CCC1CC2 (centres unmarked) | 93 | 21 | – | 70
